A short description of one data set: in vitro. The following applies: human, A549 lung carcinoma cells.
For data set [1] the following is noted: 60 min.
Data set [2] deals with HepG2 hepatocellular carcinoma. The following applies: read-out: CC50 HepG2; MTT assay. Background: Tetrazolium dyes change colour on reduction, which living cells bring about.
In another data set the test system is A549 lung carcinoma. The following applies: read-out: CC50 A549; MTT assay.

Here are results for three molecules from paper PMC7680358 (European journal of medicinal chemistry, 2020).

Consider `O=C(O)c1ccc(C(F)(F)F)cc1C(=O)c1ccc(Sc2ccc(Cl)c(Cl)c2)c([N+](=O)[O-])c1` [8e, 2-(4-((3,4-Dichlorophenyl)thio)-3-nitrobenzoyl)-4-(trifluoromethyl)benzoic acid], for which the CC50 in the data set “in vitro” is 1840 µM.

`NC(=O)N1c2ccccc2C=Cc2ccccc21` [CBZ, carbamazepine]: the “% Metabolism 50 μM” value in data set [1] (50 μM, 1 mg/ml rat liver microsome, NADPH, 37 °C) worked out at 48.86 ± 5.27%. In addition, the “average percentage of the remaining compound” value in data set [1] (average over 10 μM and 50 μM, rat liver microsomes) turned out to be 45%. For the molecule Cisplatin [DDP], the figures for the CC50 (in data set [2]; with A549 lung carcinoma) were 4.35 ± 0.23 µM and 5.26 ± 0.32 µM, respectively.
